Source: US6392049B1, “Process for preparing 2,4-dihydroxypyridine and 2,4-dihydroxy-3-nitropyridine” (Aventis Pharmaceuticals Inc., priority 1996, dated 2002)

Sequences of proteins named here, by UniProt entry; tags and fusion partners are left off.
UniProt P25099, whole entry: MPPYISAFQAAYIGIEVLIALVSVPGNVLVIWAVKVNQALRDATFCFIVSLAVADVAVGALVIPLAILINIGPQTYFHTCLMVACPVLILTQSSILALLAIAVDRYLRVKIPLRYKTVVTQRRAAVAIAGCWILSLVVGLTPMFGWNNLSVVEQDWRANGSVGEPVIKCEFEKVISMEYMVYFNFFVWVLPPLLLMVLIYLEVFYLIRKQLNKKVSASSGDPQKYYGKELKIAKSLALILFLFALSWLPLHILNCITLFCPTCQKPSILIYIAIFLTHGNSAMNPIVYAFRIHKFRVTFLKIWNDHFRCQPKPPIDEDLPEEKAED
UniProt P30543, whole entry: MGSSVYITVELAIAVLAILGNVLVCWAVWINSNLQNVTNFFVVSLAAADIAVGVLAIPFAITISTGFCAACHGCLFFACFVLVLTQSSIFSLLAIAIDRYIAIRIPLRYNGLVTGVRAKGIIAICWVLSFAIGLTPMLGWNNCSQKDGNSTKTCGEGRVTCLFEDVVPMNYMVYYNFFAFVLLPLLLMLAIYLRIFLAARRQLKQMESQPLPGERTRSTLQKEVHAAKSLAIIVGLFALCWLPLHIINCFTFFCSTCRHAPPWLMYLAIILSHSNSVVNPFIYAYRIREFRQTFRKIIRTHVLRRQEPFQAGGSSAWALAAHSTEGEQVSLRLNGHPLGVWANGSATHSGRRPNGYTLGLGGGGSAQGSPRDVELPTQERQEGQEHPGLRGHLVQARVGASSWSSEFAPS

Key:
A1 receptor = target: T1, A1 receptor (Rattus norvegicus, UniProt P25099); experiment: A1 adenosine receptor binding, displacement of 3H-CHA, whole rat brain membranes
T1 construct: using a membrane preparation of whole rat brain; from tissue; host or cells: whole rat brain membranes

A2 receptor = A2 receptor (Rattus norvegicus, UniProt P30543); experiment: A2 adenosine receptor binding, displacement of 3H-CGS 21680, rat brain striatum membranes; settings: read-out: Adenosine Receptor Binding (IC50) A2; literature compounds, Table V, methods as above

IC50 (A2 receptor) [µM]	SMILES	IC50 (A1 receptor) [µM]
–	CCNC(=O)[C@H]1O[C@@H](n2cnc3c(N)nc(NCCc4ccc(CCC(=O)O)cc4)nc32)[C@H](O)[C@@H]1O [CGS21680, 2-[[2-[4-[2-carboxethyl)phenyl]ethyl]amino]-N-ethylcarboxamidoadenosine, reference compound]	30
0.3	C[C@H](Cc1ccccc1)Nc1ncnc2c1ncn2[C@@H]1O[C@H](CO)[C@@H](O)[C@H]1O [R-PIA, R-phenylisopropyladenosine, reference compound]	–
